Data from article PMC9025941, “Influence of the Type of Amino Acid on the Permeability and Properties of Ibuprofenates of Isopropyl Amino Acid Esters” (International Journal of Molecular Sciences, 2022).
Marks after values point to notes of the source that are not given here.

Tests used:
[1] = n-octanol-water partition coefficient, shake flask method; settings: 25 °C
[2] = In vitro skin permeation, Franz diffusion cells
[3] = 24 h penetration, n = 3

| Molecule | Log P (n-octanol-water partition coefficient) [1] | LT, lag time ([2]; n = 3) [h] | also measured |
| --- | --- | --- | --- |
| CC(C)Cc1ccc(C(C)C(=O)O)cc1.CC(C)Cc1ccc(C(C)C(=O)O)cc1.CC(C)OC(=O)[C@@H](N)CCCCN [L-lysine isopropyl ester bis(ibuprofenate)] | 1.055 ± 0.006 | – | – |
| CC(C)Cc1ccc(C(C)C(=O)O)cc1.CC(C)OC(=O)[C@@H](N)CCCCN [L-lysine isopropyl ester ibuprofenate] | 1.047 ± 0.018 | – | – |
| CC(C)Cc1ccc(C(C)C(=O)O)cc1.CC(C)OC(=O)[C@@H](N)C(C)C [L-valine isopropyl ester ibuprofenate] | – | 1.443 ± 0.122 | – |
| L-proline isopropyl ester ibuprofenate | 1.053 ± 0.048 | 1.428 ± 0.031 | Q%24 h, the percentage of the applied dose permeated after 24 h ([2]; 24 h, n = 3): 15.660 ± 0.435%; Cumulative Permeation Mass ([2]; 24 h, saturated solution in PBS pH 7.4, mass of compound, n = 3): 658.661 ± 18.295 ^b µg·cm^−2; EF, enhancement factor ([2]; relative to IBU): 2.11; JSS, steady-state flux ([2]; saturated solution in PBS pH 7.4, n = 3): 56.589 ± 2.204 µg IBU cm^−2 h^−1 |
| glycine isopropyl ester ibuprofenate [[GlyOiPr][IBU]] | 0.645 ± 0.012 | – | Accumulation in the skin [3]: 785.483 ± 95.862 µg IBU g^−1 |
